This is an account of results in patent USRE37793E1, “Method and composition for inhibiting bacteria” (Winthrop University Hospital, priority 1995, dated 2002).

Structures are written as SMILES.

Data set [1] relates to humans. To be noted: cited from earlier work.
Data set [2] concerns Swiss-Webster female mice. Put plainly: Intraperitoneal toxicity in mice. The following applies: dose as BAL.
The test system of data set [3] is rats. To be noted: cited from earlier work.
Data set [4] deals with Swiss-Webster female mice. In words: Oral toxicity of BisBAL in mice. The following applies: dose as BAL.
The test system of data set [5] is bacteria. In words: Antibacterial potency (MIC) in general. Type of data set: cell-based. The following applies: with few exceptions.

A word on the MIC: it is the least concentration at which growth counts as inhibited. Higher therefore signals a less susceptible organism. As for `OCC(S)CS` (centres unmarked), the “Threshold toxic intramuscular dose” value in data set [1] is “less than 5 mg/kg”. Further, the “IP LD50” value in data set [2] came out at 60 mg/kg. In addition, the “Intramuscular LD50” value in data set [3] is reported as 86.7 mg/kg. Moreover, in data set [4], the “Oral LD50” value stood at 333 mg/kg. Also, in data set [5], the MIC lay within 1000 to 10000 µM.
